This is an account of results in paper PMC10199925, “Cyclodextrin carboxylate improves the stability and activity of nisin in a wider range of application conditions” (NPJ Science of Food, 2023).

The nature of series [1]: Thermogravimetric analysis (TG/dTG). The class given is physicochemical. As to conditions: dry powder, N2 50 mL/min, 10 °C/min, 30 to 600 °C. As to the method:
The thermal behavior of the nisin-SACD complexes was evaluated using a thermogravimetric (TG) analysis system (TGA2, Mettler–Toledo, Schwerzenbach, Switzerland) under N2 (50 mL/min) at a 10 °C/min heating rate over a temperature range from 30 to 600 °C.

The conditions of series [2]: previous study; cited from earlier work.

Consider succinic acid-β-cyclodextrin [SACD], for which, in series [1], the “maximum decomposition peak temperature (dTG)” value came to 326 °C and the “weight loss at the end of heating (TG)” value is approximately 67%. In series [2], the “water dispersibility relative to β-CD” value was “over 50 fold”.
